Where a name gives a salt, the structure may show the parent alone.

1 molecule from patent US6617361B2, “Behavior chemotherapy” (Be Able, LLC, priority 1999, dated 2003) can be followed below.

The experiment concerns Patient four. Kind of experiment: Protocol and results with patient four (morbid obesity, cardiomyopathy). The format is in vivo, human. To be noted: July 1997; combination Ionamin 30 mg + Zoloft 25 + Pondimin. The method, then: This person has been in the practice for several years. Their medical problems surround a cardiomyopathy with a low cardiac output state and heart failure. They also have a history of hypertension, hypothyroidism on therapy, and morbid obesity.
Medication alterations continued over the next several months with increasing Ionamin to 30 mg. Hytrin was added at 2 mg because of prostatic symptoms and in November Pondimin was added.
Adipex-P 37.5 one-half was added to their medications. […]

As for `CN[C@H]1CC[C@@H](c2ccc(Cl)c(Cl)c2)c2ccccc21` [Zoloft, sertraline HCl], the body weight was 217 lb.
